The source of these data is patent US10196454B2, “Anti-PMEL17 antibodies and immunoconjugates” (GENENTECH, INC., priority 2012, dated 2019).

For one assay, the system named is UACC-257X2.2 tumor. As to the kind of experiment: Resistance developed in vivo, UACC-257X2.2 xenograft. Further details: species or system mice. To be noted: tumor #359, repeated IV doses 3 to 10 mg/kg. As for the experimental part: For resistance developed in vivo, NCr nude mice (Taconic, Hudson, N.Y.) were inoculated subcutaneously in the dorsal right flank with 5 million UACC-257X2.2 cells in HBSS with Matrigel. UACC-257X2.2 cells are derived from UACC-257 cells (National Cancer Institute) and optimized for growth in vivo as follows. UACC-257 cells were injected subcutaneously in the right flank of female NCr nude mice to induce tumor growth. One tumor was harvested and grown in vitro (referred to as UACC-257X1.2 cell line). The UACC-257X1.2 line was injected again subcutaneously in the right flank of female NCr nude mice to improve the growth of the cell line in vivo. A tumor from the second injection round was collected and again adapted for in vitro growth to generate UACC-257X2.2.
Ten mice inoculated with UACC-257X2.2 cells were dosed with 3 mg/kg hu5E9.v1-MC-vc-PAB-MMAE intravenously on day 0 (the heavy chain and light chain sequences for hu5E9.v1 are shown in SEQ ID NOs: 46 and 45, respectively). To determine when the mice would be dosed again, and at what doses, the following was taken into consideration: whether or not tumors re-grew after the initial treatment (i.e., tumors that grew back to initial tumor volume size at day 0), and the rate of re-growth. […] The range of doses administered were 3 mg/kg, 6 mg/kg, 8 mg/kg, and 10 mg/kg.

The subject of assay [1] is parental UACC-257X2.2 cells. The experiment in a line: In vitro cell proliferation (CellTiter-Glo, five days). To be noted: parental line, immunoconjugates. Format: cell-based. As for the experimental part:
(§1) In vitro cell proliferation of the cell lines in the presence of the immunoconjugates was assessed. Cells were plated at 1,500 cells per well in 50 μL of normal growth medium in 96-well clear-bottom plates. Twenty-four hours later, an additional 50 μL of culture medium with serial dilutions of immunoconjugates were added to triplicate wells. Five days later, cell survival was determined using CellTiter-Glo Luminescent Cell Viability Reagent (G7572, Promega Corporation, Madison, Wis.) using an EnVision 2101 Mutilabel Reader (Perkin-Elmer, Waltham, Mass.).
For orientation: Cellular ATP, detected with luciferase, serves as a proxy for viable cell number.

Assay [2] has as its system in vivo derived resistant UACC-257X2.2 cells. The assay is described as above. Format: cell-based. Particulars: in vivo derived resistant line, immunoconjugates. On the procedure: Tumor #359 was harvested and the cells were dissociated for growth in vitro (referred to herein as in vivo-derived resistant UACC-257X2.2 cells).
as §1

In assay [3] the test system is in vitro derived resistant UACC-257X2.2 cells. The assay is described as above. The assay is classed as cell-based. On the procedure:
For resistance developed in vitro, UACC-257X2.2 cells were adapted to increasing concentrations of anti-ETBR-vc-MMAE in culture dishes over the course of two months.
as §1

B1: anti-ETBR-vc-MMAE: anti-endothelin B receptor immunoconjugate comprising a val-cit linker and MMAE drug (conjugate)
heavy: EVQLVESGGGLVQPGGSLRLSCAASGYTFTSYWMQWVRQAPGKGLEWIGTIYPGDGDTSYAQKFKGRATLSTDKSKNTAYLQMNSLRAEDTAVYYCARWGYAYDIDNWGQGTLVTVSSASTKGPSVFPLAPSSKSTSGGTAALGCLVKDYFPEPVTVSWNSGALTSGVHTFPAVLQSSGLYSLSSVVTVPSSSLGTQTYICNVNHKPSNTKVDKKV[human IgG1 Fc omitted here]
light: DIQMTQSPSSLSASVGDRVTITCKSSQSLLDSDGKTYLNWLQQKPGKAPKRLIYLVSKLDSGVPSRFSGSGSGTDFTLTISSLQPEDFATYYCWQGTHFPYTFGQGTKVEIKRTVAAPSVFIFPPSDEQLKSGTASVVCLLNNFYPREAKVQWKVDNALQSGNSQESVTEQDSKDSTYSLSSTLTLSKADYEKHKVYACEVTHQGLSSPVTKSFNRGEC
modifications: MC-vc-PAB-MMAE conjugate
notes: anti-endothelin B receptor immunoconjugate comprising a val-cit linker and MMAE drug
Turning to B1, in the assay on UACC-257X2.2 tumor, the “time until tumor developed resistance” value is given as “about 120 days”. In addition, the EC50 (as a rule, the concentration at which the effect is half-maximal) in assay [1] was 45 ng/mL; in assay [2], 235 ng/mL; in assay [3] (in vitro derived resistant line, immunoconjugates), “insensitive”. Moreover, the “effect on growth of in vitro-derived resistant cells” value in assay [3] (concentrations up to at least 10 μg/ml) is “relatively unaffected”.
